## AlphaSeq binding of Ab-14 light chain variants to a spike HR2 peptide

All variants were tested on one target, the spike HR2 peptide PDVDLGDISGINAS (SARS-CoV-2).

The variants keep the heavy chain, the linker and the frameworks of Ab-14 (scFv order VH, the linker GGGGSGGGGSGGGGS, VL).
VH: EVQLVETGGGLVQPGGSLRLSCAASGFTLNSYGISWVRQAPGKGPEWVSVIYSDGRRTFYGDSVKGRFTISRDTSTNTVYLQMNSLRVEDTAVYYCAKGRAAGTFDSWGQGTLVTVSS
VL: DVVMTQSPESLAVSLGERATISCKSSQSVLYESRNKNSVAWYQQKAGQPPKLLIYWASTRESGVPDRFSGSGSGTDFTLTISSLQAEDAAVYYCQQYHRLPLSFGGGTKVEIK

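The library (AAYL50) carries one to three amino acid substitutions per variant, with no insertions or deletions. Affinity was read by AlphaSeq, a pooled yeast mating assay with surface-displayed partners. After mating in shaken culture at 30 °C for 16 h, diploids were selected and their barcode pairs sequenced. The ratio of observed to expected reads was calibrated, replicate by replicate, on BCL2-family standards whose Kd was known from biolayer interferometry. Each pool was mated in three replicate cultures.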

Changes read parent residue, position, new residue, counted from the first residue of the VL shown.
Numbers give log10(Kd / nM), so 0 is 1 nM and 3 is 1 µM. Smaller is tighter.
Averages over replicates are reported, and they cover detected replicates only.
Where no diploid with the target was found in that replicate, the entry reads "ND": below detection, most likely a poor binder, though not proof of it.

log10 Kd, replicates	mean, log10 nM	signal with controls	changes
1.57 1.60 1.71	1.63	6/9 (4.66)	S26C+V29S+H98F
2.72 2.52 2.93	2.72	0/9	Q27W+T59E+S103W
ND ND ND	ND	0/9	K24M+S38F+W56A
2.09 1.86 2.17	2.04	2/9 (4.09)	V29P+L30H+S33K
1.23 1.27 1.22	1.24	4/9 (4.77)	S25D+R34A+N37R
ND 5.09 ND	5.09	3/9 (4.39)	S38R+S62L+Q96M
0.31 0.34 0.32	0.32	0/9	S38N+H98Y+S103E
ND ND 3.48	3.48	0/9	A57M+L100E+S103D
1.06 1.31 1.08	1.15	0/9	K24A+Q96L+H98T
0.90 1.05 0.94	0.96	1/9 (3.85)	R99F+S103W
ND ND ND	ND	2/9 (3.89)	Y31V+Q95F+Q96S
ND ND ND	ND	2/9 (3.48)	K24L+V29Y+P101A
ND ND ND	ND	1/9 (4.35)	W56M+R60E+Q96A
4.29 ND 4.32	4.30	1/9 (4.40)	S33I+A57V+P101E
1.45 1.07 0.88	1.13	0/9	L30Q+Q95A+P101A
6.01 3.27 5.26	4.85	1/9 (3.85)	R34E+T59F+Y97A
ND ND ND	ND	0/9	N35C+N37V+S38A
1.72 1.57 2.03	1.77	1/9 (4.39)	V29T+K36N+T59C
1.14 1.22 1.21	1.19	0/9	R34C+S62R+H98K
ND ND ND	ND	0/9	A57C+R60L+L100T
ND 4.48 ND	4.48	1/9 (4.12)	Q27I+T59D+R60V
ND ND ND	ND	2/9 (3.95)	T59E+R99P+L100E
ND ND ND	ND	0/9	K24C+Y31H+R34C
1.95 2.78 3.00	2.58	1/9 (4.18)	T59Y+Q96A+Y97W
ND ND ND	ND	2/9 (4.36)	S25T+S26I+A40L
2.02 1.77 2.12	1.97	2/9 (4.31)	S26R+S38V+R99E
ND ND ND	ND	0/9	A57K+R60D+E61I
ND 3.68 ND	3.68	0/9	V39M+Q95H
ND ND ND	ND	0/9	V29A+L30M+R99Q
ND ND ND	ND	0/9	T59V+L100D
3.61 3.34 3.71	3.56	1/9 (3.98)	S26K+K36D+E61K
ND ND ND	ND	0/9	Q27K+N35D+L100W
1.58 1.55 1.74	1.62	5/9 (5.21)	E32S+K36T+E61Y
5.61 3.57 4.56	4.58	5/9 (4.79)	L30C+A40T+Q95K
0.19 0.52 0.40	0.37	7/9 (5.15)	S38N+E61V
1.66 1.64 1.55	1.62	4/9 (3.75)	S25H+Q96K
ND ND ND	ND	0/9	K24F+S26Q+Y31T
1.86 2.22 2.41	2.16	3/9 (4.66)	S33A+K36F+S62N
ND 3.60 5.25	4.43	4/9 (3.95)	R60Y+H98L+P101V
1.02 0.88 0.78	0.89	2/9 (3.95)	S28T+L30N+Y31N
ND ND ND	ND	0/9	Q27F+S28M+K36Q
ND ND ND	ND	0/9	S26A+W56H+L100D
2.87 2.69 2.73	2.77	4/9 (4.52)	S26I+L30Q+S103G
ND ND ND	ND	1/9 (4.05)	K24D+A40K+W56N
ND ND ND	ND	0/9	S26H+V39I+L100K
4.78 ND ND	4.78	2/9 (3.55)	V29H+T59S
ND ND 4.41	4.41	3/9 (4.41)	K24L+R34V+N35Y
ND 4.70 ND	4.70	1/9 (2.96)	S25P+L100A+P101T
ND ND ND	ND	0/9	R34C+R60S+S62F
1.10 1.32 1.11	1.18	2/9 (4.94)	N37Y+H98A+R99A
ND 3.28 3.74	3.51	0/9	Q27F+W56V+Y97C

The first 8 variants above that were never detected:

changes	log10 Kd, replicates	mean, log10 nM	signal with controls
K24M+S38F+W56A	ND ND ND	ND	0/9
Y31V+Q95F+Q96S	ND ND ND	ND	2/9 (3.89)
K24L+V29Y+P101A	ND ND ND	ND	2/9 (3.48)
W56M+R60E+Q96A	ND ND ND	ND	1/9 (4.35)
N35C+N37V+S38A	ND ND ND	ND	0/9
A57C+R60L+L100T	ND ND ND	ND	0/9
T59E+R99P+L100E	ND ND ND	ND	2/9 (3.95)
K24C+Y31H+R34C	ND ND ND	ND	0/9

For reference, the parent read 0.65 as the reference entry and 1.68 as a member of this library.
Three control strains display no target. For library AAYL50, 18% of the pairings with them gave a signal, with a median of 4.19 and one signal in twenty below 2.99, so weak values seen in few replicates may be background. The control count says in how many pairings with the empty strains this scFv gave a signal, with their mean in brackets.

The measurements come from Engelhart et al. 2022 (doi:10.1038/s41597-022-01779-4) through the FLAb antibody collection.